{
  "source": "patent US20240208955A1",
  "about": "(RESEARCH TRIANGLE INSTITUTE, priority 2021, published 2024)",
  "tested_on": "parental CHO cells",
  "assay": "cAMP levels in parental CHO cells (counter-screen)",
  "format": "cell-based",
  "settings": "concentrations up to 100 μM",
  "data": [
    {"compound": "Cc1ccc(-c2noc(-c3ccc(NC(=O)C4CC(=O)N(Cc5ccccc5)C4)cc3)n2)cc1", "note": "(stereo not shown) [RLX-1, 1-Benzyl-N-{4-[3-(4-methylphenyl)-1,2,4-oxadiazol-5-yl]phenyl}-5-oxopyrrolidine-3-carboxamide]", "values": [
      {"measurement": "effects on promotion or inhibition of cAMP levels", "value": "no effects"}
    ]}
  ]
}
